Measured values as given in US20060211764A1, “Cell activator, process for producing cell activator and apparatus therefor” (priority 2002, published 2006).

Assay: Lethal dose
Conditions: in vivo

Cyclic Poly-lactate [CPL]
lethal dose: cannot be determined
